Tested on: OC[C@H]1O[C@@H](O[C@H]2[C@H](O)[C@@H](O)C(O)O[C@@H]2CO)[C@H](O)[C@@H](O)[C@@H]1O
Assay: purified protein, by the assay type

Schizosaccharomyces pombe anthocyanase, recombinant, produced in Arxula adeninivorans (r-enzyme-3, rSantp) (Schizosaccharomyces pombe 972h-)
Km (other: recombinant anthocyanase (r-enzyme-3)): 11.19 mM

Schizosaccharomyces pombe anthocyanase (Santp, enzyme-3), native (Schizosaccharomyces pombe 972h-)
Km (other: native enzyme-3, 45.0 °C): 91.86 mM
